Screening results from PubChem BioAssay.
Compounds with a hit are over-represented: about 1.7% of the library has one in this group of screens.
UUG fidelity = modulators of start codon recognition fidelity in yeast; AID 602363; hit rate 0.13% among 350,000; activity score, % at 18.7 µM; S. cerevisiae UUG-firefly luciferase reporter, luminescence/redox ratio;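 active = replicate mean at a twofold rise or more, about +100% in these data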;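 note: firefly luciferase made from a UUG start codon reports start codon fidelity; reporter light over untreated wells divided by growth signal over untreated wells; some hits fall short of that in this replicate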
dFosB act = activators of mouse delta FosB homodimer; P13346; purified delta FosB, TAMRA-CDK5 oligo fluorescence polarization; percent of positive-control signal above neutral wells; activation, % at 25 µM; hit rate 0.99% among 340,000;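 active = mean activation above about 17%, with every replicate also reaching it, limit read from the data, passing the limit was not always enough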
Dyrk1A ADPGlo = blocks rat Dyrk1A kinase activity; AID 504441; ADP-Glo luminescence, NFATc1 peptide; hit rate 0.43% among 310,000; inhibition, % at 12.5 µM; in the data active = inhibition above about 50%
CAL PDZ FP-1 = blocks peptide binding to the human CAL PDZ domain; Q9HD26; purified CAL PDZ, TMR-peptide fluorescence polarization, 1 h; inhibition, % at 24.9 µM; hit rate 0.92% among 300,000;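 active = mean inhibition of at least 30% with at least half of replicates also reaching 30%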
CDK5 p35 inh = CDK5/p35 (human) kinase inhibition; Q00535+Q15078; Recombinant CDK5/p35, ADP-Glo luminescence, 60 min; inhibition, % at 10 µM; hit rate 0.01% among 330,000; AID 488839;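 active = highest replicate inhibition of at least 50% and at least 75% of replicates reaching 50%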
CAL PDZ FP-2 = inhibitors of human CAL PDZ peptide binding | purified CAL PDZ, TMR-peptide fluorescence polarization, 1 h | hit rate 0.02% among 330,000 | inhibition, % at 20 µM | AID 504414;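 active = highest replicate inhibition of at least 40%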
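Read-out basis: mP drop reported as inhibition | Assay system: Tagged CAL PDZ protein CerCALP, purified | Benchmarks: Unlabelled peptide for full inhibition, DMSO wells as neutral | Schedule: 1 h incubation at room temperature before polarization reading | Buffer or medium: Sodium phosphate/NaCl buffer pH 7.4 with TCEP, IgG, Thesit | Doses: Single point, 20 µM | Measured by: Fluorescence polarization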
Of the large screens only hits and unclear results are named; the others gave an inactive call.

Clc1ccc(C2Nc3cccc4cccc(c34)N2)cc1	none (no result: CAL PDZ FP-1)
Brc1ccc(C2Nc3cccc4cccc(c34)N2)s1	dFosB act 23 (no result: UUG fidelity)
NS(=O)(=O)c1ccc(CNC(=O)c2ccc(Cl)c(S(=O)(=O)NCc3ccccc3)c2)cc1	none
NS(=O)(=O)c1ccc(NC(=O)c2ccc(CNS(=O)(=O)c3cc(C(F)(F)F)ccc3Cl)cc2)cc1	dFosB act 108
CN(c1ccccc1)S(=O)(=O)c1cccc(C(=O)NCCc2c[nH]c3ccccc23)c1	CAL PDZ FP-1 59
O=C(NCCc1c[nH]c2ccccc12)c1cccc(S(=O)(=O)Nc2ccccc2Cl)c1	none (no result: UUG fidelity)
C[C@H](CO)N1C[C@H](C)[C@@H](CN(C)Cc2ccncc2)Oc2ccc(NC(=O)Nc3ccc4c(c3)OCO4)cc2CC1=O	none (no result: dFosB act, Dyrk1A ADPGlo, CAL PDZ FP-1, CDK5 p35 inh, CAL PDZ FP-2)
CN(C)C/C=C/C(=O)Nc1cccc(-c2c[nH]c3ncnc(Oc4ccc(NC(=O)CC(=O)Nc5ccc(F)cc5)cc4F)c23)c1	Dyrk1A ADPGlo 68
COC(=O)C[C@H]1C=C[C@@H](C(C(=O)OC)C(=O)OC)CN1C(C)=O	CAL PDZ FP-1 91
OCC1CCCCN1C(=S)NCc1ccco1 (configuration not stated)	CAL PDZ FP-1 64 (no result: UUG fidelity)
COc1ccc2[nH]cc(CCNC(=O)Cc3ccc(Br)cc3)c2c1	none
COc1ccc2[nH]cc(CCNC(=O)Cc3ccc(F)cc3)c2c1	CAL PDZ FP-1 79
COc1cc(OC)c(N(C)S(=O)(=O)c2cccc(C(=O)OCc3c(C)noc3C)c2)cc1Cl	none (no result: UUG fidelity)
COc1cc(OC)c(N(C)S(=O)(=O)c2cccc(C(=O)OCC(=O)N3CCOCC3)c2)cc1Cl	CAL PDZ FP-1 32
Cn1c(=O)[nH]c(=O)c2c1nc(SCC(=O)Nc1ccccc1)n2Cc1ccccc1	dFosB act 54 (no result: CAL PDZ FP-1)
C=C(C)CSc1nc2c(c(=O)[nH]c(=O)n2C)n1Cc1ccccc1	none
O=[N+]([O-])c1cccnc1N/N=C/c1ccccc1O	CAL PDZ FP-1 76 (no result: UUG fidelity)
Cc1c(O)ccc(/C=N/Nc2ncccc2[N+](=O)[O-])c1O	none
O=C(CNS(=O)(=O)c1ccc([N+](=O)[O-])cc1)N/N=C/c1ccc(O)cc1O	CAL PDZ FP-1 34 (no result: CAL PDZ FP-2)
COc1ccccc1C=NNc1ccc([N+](=O)[O-])cn1	none
O=[N+]([O-])c1ccc(NN=Cc2ccc(O)cc2O)nc1	CAL PDZ FP-1 48
O=[N+]([O-])c1ccc(NN=Cc2ccccc2O)nc1	CAL PDZ FP-1 42
O=[N+]([O-])c1ccc(NN=Cc2ccc(O)cc2)nc1	none
Cc1ccc(S(=O)(=O)N(C)C[C@@H]2OCCCC[C@H](C)Oc3ccc(NS(=O)(=O)c4cccs4)cc3C(=O)N([C@H](C)CO)C[C@H]2C)cc1	none (no result: dFosB act, Dyrk1A ADPGlo, CAL PDZ FP-1, CDK5 p35 inh, CAL PDZ FP-2)
Cc1cc2nc(/C(C#N)=C/c3ccncc3)[nH]c2cc1C	CAL PDZ FP-1 107
N#C/C(=C\c1ccncc1)c1nc2ccccc2[nH]1	none (no result: UUG fidelity)
Cc1noc(C)c1S(=O)(=O)N(C)C[C@H]1OCCCC[C@@H](C)Oc2ccc(NS(=O)(=O)c3cccs3)cc2C(=O)N([C@@H](C)CO)C[C@H]1C	none (no result: dFosB act, Dyrk1A ADPGlo, CAL PDZ FP-1, CDK5 p35 inh, CAL PDZ FP-2)
CSc1nc2c(c(=O)[nH]1)C(c1cccs1)C1=C(CCCC1=O)N2 (configuration not stated)	CAL PDZ FP-1 32 (no result: CDK5 p35 inh)
CCCC#Cc1cnc2c(c1)C(=O)N([C@@H](C)CO)C[C@H](C)[C@@H](CN(C)C(=O)Cc1ccncc1)O2	none (no result: dFosB act, Dyrk1A ADPGlo, CAL PDZ FP-1, CDK5 p35 inh, CAL PDZ FP-2)
C[C@@H]1CCCCO[C@@H](CN(C)C(=O)NC2CCCCC2)[C@@H](C)CN([C@H](C)CO)C(=O)c2cc(NS(=O)(=O)c3ccccc3)ccc2O1	none (no result: dFosB act, Dyrk1A ADPGlo, CAL PDZ FP-1, CDK5 p35 inh, CAL PDZ FP-2)
CC(C)(O)CN(C(=O)C(c1ccccc1)c1ccccc1)C1CCCCC1	CAL PDZ FP-1 31 (no result: UUG fidelity)
CC(=O)NC(CC(=O)N(C)C1CCCCC1)c1ccccc1 (configuration not stated)	none
C[n+]1c(-c2ccccc2)cc2c(=Cc3ccccc3)c3ccccc3n21	none (no result: UUG fidelity, Dyrk1A ADPGlo)
Cc1cc2c(=Cc3ccc(N(C)C)cc3)c3ccccc3n2[n+]1C	dFosB act 100 (no result: UUG fidelity)
CCOC(=O)c1cc2c(=Cc3ccc(N(C)C)cc3)c3ccccc3n2[n+]1C	dFosB act 46 (no result: UUG fidelity, Dyrk1A ADPGlo)
CN(C)c1ccc(C=c2c3cc(O)ccc3n3c2cc(-c2ccccc2)[n+]3C)cc1	dFosB act 82 (no result: UUG fidelity, Dyrk1A ADPGlo)
Cc1noc(C)c1S(=O)(=O)N(C)C[C@H]1Oc2ccc(NC(=O)NC3CCCCC3)cc2CC(=O)N([C@H](C)CO)C[C@H]1C	none (no result: dFosB act, Dyrk1A ADPGlo, CAL PDZ FP-1, CDK5 p35 inh, CAL PDZ FP-2)
